Tests used:
[1] = tested on: Hsp90 complexes in K562 cell extract; assay: Nano-LC-MS/MS of PU-beads pull-downs; type: binding; details: protein identified in PU-beads pull-down of K562 cell extract, QSTAR-Elite QTof MS
[2] = tested on: Hsp90 complexes in Mia-PaCa-2 cell extract; assay: Nano-LC-MS/MS of PU-beads pull-downs; type: binding, human; details: protein identified in PU-beads pull-down of Mia-PaCa-2 cell extract; QSTAR-Elite QTof MS

With BAT3 the “Number of Assigned Spectra, K562 Prep 1” value ([1]; Prep 1) was 4, the “Number of Assigned Spectra, K562 Prep 2” value ([1]; Prep 2) was 5 and the “Number of Assigned Spectra, Mia-Paca 2” value [2] was 3.

Source: patent US20220074941A1, “HSP90 COMBINATION THERAPY” (Sloan-Kettering Institute for Cancer Research, priority 2011, published 2022)
